Measured values: the supplement of paper PMC10307832

Compound: CN1CCN(CCOc2cc(OC3CCOCC3)c3c(Nc4c(Cl)ccc5c4OCO5)ncnc3c2)CC1 [Saracatinib] + N=C(N)NC(=N)NCCc1ccccc1 [Phenformin] (partner 250 µM)
Assay: relative viability (nuclei count vs DMSO), 5 days (fraction); higher = more cells survive
Settings: first compound 0.02 µM
Summary of the method: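 Lung cancer cell lines were pin-tool dosed in 1536-well plates on the day after seeding, with either a lone drug or a fixed anchor-drug dose plus five library-drug doses (not always all listed) in √10 steps. Nuclei were counted on 4× images after 5 days. Relative viability is the ratio of treated-well to vehicle-well nuclei counts, with each value a median of duplicate plates.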

For NCI-H2085, which relative viability is on record?
The relative viability was 0.792.
